Test results taken from patent US8815903B2, “Indole derivative and pharmacologically acceptable salt thereof” (Kissei Pharmaceutical Co., Ltd., priority 2011, dated 2014).

Sequences of proteins named here, by UniProt entry; tags and fusion partners are left off.
UniProt P70597, whole entry: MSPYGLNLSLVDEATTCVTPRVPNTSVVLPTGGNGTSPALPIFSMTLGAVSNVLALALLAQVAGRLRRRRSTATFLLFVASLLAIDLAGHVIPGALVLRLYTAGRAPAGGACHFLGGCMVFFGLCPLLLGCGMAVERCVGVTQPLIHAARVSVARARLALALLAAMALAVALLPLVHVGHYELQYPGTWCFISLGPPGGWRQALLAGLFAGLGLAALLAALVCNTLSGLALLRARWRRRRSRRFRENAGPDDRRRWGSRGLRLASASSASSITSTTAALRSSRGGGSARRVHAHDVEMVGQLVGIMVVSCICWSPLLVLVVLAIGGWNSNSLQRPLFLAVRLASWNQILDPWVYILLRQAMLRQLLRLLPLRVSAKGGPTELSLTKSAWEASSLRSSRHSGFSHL

Molecular target: rat EP1 receptor (Rattus norvegicus, UniProt P70597)
Test: Test for confirmation of EP1 receptor antagonism (inhibition of PGE2-induced increase in intracellular calcium concentration)
Conditions: rat EP1 receptor-expressing COS-1 cells; prostaglandin E2 10 nM; fluorescent calcium indicator, FDSS 7000
Procedure: Test for Confirmation of EP1 Receptor Antagonism
(1) Preparation of Rat EP1 Expression Vector
Using Rat Kidney BD Marathon-Ready cDNA (Nippon Becton Dickinson Company, Ltd.) as a template, a forward primer shown in (SEQ ID NO:1), and a reverse primer shown in (SEQ ID NO:2), a first run of PCR was carried out using KOD-Plus-Ver 2.0 (Toyobo Co., Ltd.). Further, using this amplification product as a template, a forward primer shown in (SEQ ID NO:3), and a reverse primer shown in (SEQ ID NO:4), a second run of PCR was carried out in the same manner. The amplification product obtained by the second run of PCR was incorporated into a vector (pcDNA3.1 D/V5-His-TOPO (registered trademark), Invitrogen Japan K. K.). By a conventional method, the vector containing this amplification product was introduced to E. coli (One Shot TOP 10 Competent Cells, Invitrogen Corporation) to transform. This transformed E. coli was cultured in an LB agar medium for one day. After the culture, colonies were selected and cultured in an LB liquid medium containing 50 μg/mL of ampicillin. After the culture, the vector was purified using a QIAprep Spin Miniprep Kit (Qiagen K. K.). […]

COc1cc2[nH]c(C(C)(C)C)c(Cc3cccc(-c4nnn[nH]4)n3)c2cc1Cl
IC50: 0.019 µM
